The nature of the series: solubility test of griseofulvin in water. It counts as physicochemical. The settings on record: 5 mg griseofulvin in one liter water, 37° C.

Turning to `COC1=CC(=O)C[C@@H](C)[C@]12Oc1c(Cl)c(OC)cc(OC)c1C2=O` [griseofulvin], the “Amount dissolved (griseofulvin)” value is, setting by setting: (0 min) 0; (3 min) 18; (6 min) 24; (10 min) 26; (15 min) 27; (20 min) 28. For the same molecule, the “Amount dissolved (griseofulvin)” value is, setting by setting: (30 min) 28; (60 min) 28.

These data come from patent publication US5538728A, “Hydrophilic polymer-silicate mineral complex material and use thereof” (priority 1989, dated 1996).
